In assay [1] the target is T1, Mitogen-activated protein kinase kinase kinase 7 (Homo sapiens) (UniProt O43318).
T1 sequence (whole entry): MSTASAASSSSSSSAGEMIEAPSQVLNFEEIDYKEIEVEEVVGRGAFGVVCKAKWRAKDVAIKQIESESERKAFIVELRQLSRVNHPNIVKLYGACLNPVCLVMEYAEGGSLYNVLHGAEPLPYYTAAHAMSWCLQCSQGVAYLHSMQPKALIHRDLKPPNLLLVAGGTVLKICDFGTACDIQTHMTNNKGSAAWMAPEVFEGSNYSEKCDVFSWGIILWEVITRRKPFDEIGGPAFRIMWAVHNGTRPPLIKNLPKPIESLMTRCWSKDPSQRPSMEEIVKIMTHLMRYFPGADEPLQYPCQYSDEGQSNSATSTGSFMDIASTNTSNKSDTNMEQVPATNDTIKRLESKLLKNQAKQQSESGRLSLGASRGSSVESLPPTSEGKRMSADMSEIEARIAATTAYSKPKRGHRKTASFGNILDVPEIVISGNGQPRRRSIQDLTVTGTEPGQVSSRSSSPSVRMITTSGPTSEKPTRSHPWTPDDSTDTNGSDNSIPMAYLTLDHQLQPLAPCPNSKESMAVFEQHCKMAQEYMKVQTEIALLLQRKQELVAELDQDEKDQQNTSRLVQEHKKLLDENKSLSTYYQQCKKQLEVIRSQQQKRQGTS
Briefly: Inhibition of TAK1 (unknown origin) at 10 uM by Ambit Kinomescan binding assay relative to control.

The target in assay [2] is T2, Serine/threonine-protein kinase TAO3 (Homo sapiens) (UniProt Q9H2K8).
T2 sequence (whole entry): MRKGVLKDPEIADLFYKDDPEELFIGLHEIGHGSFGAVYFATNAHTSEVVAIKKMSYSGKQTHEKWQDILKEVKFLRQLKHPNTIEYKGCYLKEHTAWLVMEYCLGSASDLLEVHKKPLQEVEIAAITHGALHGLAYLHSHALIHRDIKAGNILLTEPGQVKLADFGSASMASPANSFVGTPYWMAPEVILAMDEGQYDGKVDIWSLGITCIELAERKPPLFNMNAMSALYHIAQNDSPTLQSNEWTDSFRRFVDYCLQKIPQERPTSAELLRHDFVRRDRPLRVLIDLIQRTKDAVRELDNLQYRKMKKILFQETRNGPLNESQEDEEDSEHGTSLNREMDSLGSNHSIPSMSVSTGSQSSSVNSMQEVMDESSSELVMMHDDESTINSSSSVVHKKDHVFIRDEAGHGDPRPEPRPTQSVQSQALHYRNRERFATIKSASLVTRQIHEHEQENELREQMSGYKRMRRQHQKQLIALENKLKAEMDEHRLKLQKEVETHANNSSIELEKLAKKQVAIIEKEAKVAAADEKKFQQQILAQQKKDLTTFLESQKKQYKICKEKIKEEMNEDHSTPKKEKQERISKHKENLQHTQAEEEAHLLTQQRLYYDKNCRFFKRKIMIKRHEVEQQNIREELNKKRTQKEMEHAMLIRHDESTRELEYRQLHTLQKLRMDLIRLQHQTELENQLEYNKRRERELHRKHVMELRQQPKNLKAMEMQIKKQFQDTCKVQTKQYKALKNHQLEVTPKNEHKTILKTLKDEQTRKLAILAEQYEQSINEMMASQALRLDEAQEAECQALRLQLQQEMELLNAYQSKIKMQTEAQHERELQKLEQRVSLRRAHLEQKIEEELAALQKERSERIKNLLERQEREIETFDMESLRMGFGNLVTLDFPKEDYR
Description: Inhibition of TAOK3 (unknown origin) at 10 uM by Ambit Kinomescan binding assay relative to control.

Regarding `CCN1CCN(Cc2ccc(NC(=O)c3ccc(C)c(Oc4ccnc5[nH]ccc45)c3)cc2C(F)(F)F)CC1`, the residual activity in assay [1] and in assay [2] was 0.15% each time.

These data come from ChEMBL document CHEMBL5696442, “Discovery of type II inhibitors of TGFβ-activated kinase 1 (TAK1) and mitogen-activated protein kinase kinase kinase kinase 2 (MAP4K2)” (J Med Chem, 2015).
